Assay outcomes deposited in PubChem by National Center for Advancing Translational Sciences (NCATS).
ClpP mod = qHTS Assay for Activators of ClpP | ATP-dependent Clp protease proteolytic subunit (Bacillus subtilis (strain 168)), P80244 | purified B. subtilis ClpP, FRET peptide cleavage, 20 min | Potency, µM (doses to about 57.5 µM) | hit rate 1.9% among 340,000 | AID 651965, 2013; active = well fitted falling curve with a large enough effect; inconclusive = small, poorly fitted or top-dose-only effect; inactive = no such curve, though single readings can be large or run the other way; note: the source files actives as falling curves though it sought activators and does not explain the sign; nearly all actives have a fitted effect of over 65% in size
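Buffer: 100 mM Tris/HCl pH8, 100 mM KCl, 0.05% low protease BSA, 2.5% glycerol, 0.01% Tween-20. ClpP 10 microg/mL final; 20 min RT; delta FRET normalized to ADEP and DMSO controls.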
TrxR1 substrate = is turned over as a substrate by rat TrxR1 | O89049 | purified TrxR1 substrate turnover, NADPH consumption readout | Potency, µM (top dose mostly 114 µM) | hit rate 0.01% among 390,000 | AID 588456; note: nearly all actives have a fitted effect of over 50% in size
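Rat TrxR1, dispensed at 90 nM, was prereduced with 400 uM NADPH (final) for 5 min at ~22 deg C, then incubated with compound 15 min before 400 uM selenite. A first-read NADPH fluorescence drop versus no-compound background flagged substrates.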
miR-21 reporter = miR-21 reporter, rising signal | HeLa miR-21 FLuc reporter, luciferase, 48 h | Potency, µM (highest dose often 38.3 µM) | 340,000 tested, under 10 active | AID 2288; active = well fitted rising curve with a large enough effect; inconclusive = small, poorly fitted or top-dose-only effect; inactive = no such curve, though single readings can be large or run the other way;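 further: miR-21 action dims this reporter so a rising signal means less miR-21 action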
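HeLa cells endogenously expressing miR-21, stably carrying CMV-driven firefly luciferase with a downstream miR-21 binding site, 2000 cells/well. Titrations up to approximately 40 uM, 48 hours; luciferase luminescence read.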
rTrxR1 inhibitor = blocks rat thioredoxin reductase 1; O89049; recombinant rTrxR1, NADPH fluorescence consumption, selenite substrate; Potency, µM (top dose mostly 114 µM), hits mostly inhibitors; hit rate 1% among 390,000; note: nearly all actives have a fitted effect of over 65% in size
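Rat TrxR1 (90 nM in the dispensed reagent) was pre-reduced with 400 uM NADPH for 5 min at room temperature, then incubated with compound for 15 min. After 400 uM selenite was added, NADPH fluorescence (Ex 340/Em 450 nm) was followed for 8 min.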
Apoferritin bind = candidate novel general anesthetic via apoferritin binding | hit rate 0.074% among 350,000 | Potency, µM (titrated, usually from 77.5 µM), hits mostly inhibitors | apoferritin/1-aminoanthracene competitive binding, fluorescence; note: nearly all actives have a fitted effect of over 20% in size
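Horse-spleen apoferritin (10 uM) in 50% saturated 1-aminoanthracene in PBS was incubated 10 min at room temperature with compound. Fluorescence (ex 380, em 535 nm) was normalized to free and bound 1-AMA, with concentration-response fitted by a four-parameter Hill equation.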
Large screens that a line does not name were inactive; ! = repeats disagree. Sampled rows, rich in hits. Any-hit rate of the full collection: about 2.5%. Unless noted, calls come from the whole dose curve; as a rule, active = well fitted curve in the direction sought with a large enough effect; inconclusive = small, poorly fitted or top-dose-only effect, or another doubt; inactive = no such curve, though single readings can be large; an effect the other way counts as inactive or inconclusive.

Protein sequences, listed by entry. Tags and fused reporters are not part of them.
ATP-dependent Clp protease proteolytic subunit (Bacillus subtilis (strain 168)), P80244, UniProt P80244, whole entry, looked up: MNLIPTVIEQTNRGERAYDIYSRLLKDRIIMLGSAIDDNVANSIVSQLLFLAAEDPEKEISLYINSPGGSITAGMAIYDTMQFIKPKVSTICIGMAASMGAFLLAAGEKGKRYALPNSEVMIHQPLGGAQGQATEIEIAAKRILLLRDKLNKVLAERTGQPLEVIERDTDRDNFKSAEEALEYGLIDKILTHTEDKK

COc1cc(NC(=O)c2noc3c2CC(C(C)(C)C)CC3)cc(OC)c1OC (stereo not drawn)	Apoferritin bind inconclusive
CC(C)OC(=O)CSc1nc(N)c(C#N)c(-c2ccco2)c1C#N	ClpP mod 20µM
O=C(N/N=C\C=C\c1ccc([N+](=O)[O-])o1)c1cccs1	rTrxR1 inhibitor 7.9µM (no result: ClpP mod)
O=C(N/N=C/c1ccc([N+](=O)[O-])o1)c1ccc(NS(=O)(=O)c2cccs2)cc1	miR-21 reporter inconclusive, rTrxR1 inhibitor 10µM (no result: ClpP mod)
COc1ccccc1OCC(=O)N/N=C/C=C/c1ccc([N+](=O)[O-])o1	rTrxR1 inhibitor 7.1µM
COc1ccc(NC(=O)c2ccc(-c3nc(CSc4ccc(C)cc4)c(C)o3)cc2)cc1Cl	none
COc1ccc(/C=C/c2nc3cc(-c4ccccc4)ccc3o2)cc1O	ClpP mod 13µM
O=C(NCCc1ccc(O)c(O)c1)C1COc2ccccc2O1 (stereo not drawn)	rTrxR1 inhibitor 45µM
O=C(NC1CCCCC1)C1COc2ccccc2O1 (stereo not drawn)	rTrxR1 inhibitor 50µM (no result: miR-21 reporter, Apoferritin bind)
O=C(NCCc1ccccc1)C1COc2ccccc2O1 (stereo not drawn)	none
CN1C(=O)c2ccccc2Sc2ccc(NC(=O)c3ccccc3F)cc21	none
CC(Oc1ccccc1)C(=O)Nc1ccc(OCc2cc(=O)n3ccsc3n2)cc1 (stereo not drawn)	none
CC(C)(C)n1ncc2c(=O)n(Cc3c(Cl)ccc(Cl)c3Cl)cnc21	none (no result: ClpP mod, miR-21 reporter, Apoferritin bind)
Clc1ccc2oc(-c3ccccn3)nc2c1	ClpP mod 16µM
Cc1ccnc2ccc(-c3nc4ccccc4o3)cc12	ClpP mod 35µM!
c1ccc(-c2nc3ccccc3o2)nc1	ClpP mod 13µM
Cc1nc(-c2ccc(C)c(S(=O)(=O)N3CCC(C(=O)NCc4ccc(F)cc4)CC3)c2)no1	none
CCC(=O)C1=C(c2cccc(OC)c2)N(C(=O)CC)n2c(nnc2C2CCCCC2)S1	miR-21 reporter inconclusive
COc1ccc(OC)c(NC(=O)CSc2cn(CC(=O)N3CCCCCC3)c3ccccc23)c1	none
Cc1cccc(C)c1NC(=O)c1oc2c(c1C)-c1nn(Cc3ccccc3)cc1CC2	none
O=C(Cn1cc(COc2c(F)c(F)cc(F)c2F)nn1)c1ccc(O)cc1	rTrxR1 inhibitor 50µM (no result: miR-21 reporter, Apoferritin bind)
O=C(CNC(=O)c1ccccc1F)OCC(=O)N1CCCCC1	ClpP mod 25µM
COc1ccc(C(C)=O)cc1COC(=O)CNC(=O)C1CCCCC1	none (no result: ClpP mod, miR-21 reporter, Apoferritin bind)
COc1ccc(C(C)=O)cc1COC(=O)CNC(=O)c1ccccc1F	rTrxR1 inhibitor 16µM
CCC(C)NC(=O)CSc1nc(-c2cccs2)cc(C(F)(F)F)n1 (stereo not drawn)	ClpP mod inconclusive
NC(=O)CSc1nnc(-c2cc(-c3cccs3)nc3ccccc23)o1	ClpP mod 25µM
CCCN(CC1CC1)C(=O)CSc1nnc(-c2cc(-c3cccs3)nc3ccccc23)o1	ClpP mod 25µM
O=C(CSc1nnc(-c2cc(-c3cccs3)nc3ccccc23)o1)NC1CCCCC1	ClpP mod inconclusive
CCC(C)NC(=O)CSc1nnc(-c2cc(-c3cccs3)nc3ccccc23)o1 (stereo not drawn)	ClpP mod 25µM
Cc1ccc2nccc(/C=C/c3ccc(N(C)C)cc3)c2c1	none (no result: miR-21 reporter, Apoferritin bind)
CC(=O)c1ccc(Nc2c3ccccc3cc3occc23)cc1	none (no result: ClpP mod, TrxR1 substrate, miR-21 reporter, rTrxR1 inhibitor)
O=C(O)CC(CC(=O)O)c1ccc2c(c1)OCO2	none (no result: miR-21 reporter, Apoferritin bind)
COc1cc(C(=O)Nc2cc3c4c(c2)CC(=O)N4CCC3)cc(OC)c1OC	ClpP mod 16µM (no result: miR-21 reporter, Apoferritin bind)
COc1cccc(C(=O)Nc2cc3c4c(c2)CC(=O)N4CCC3)c1	none (no result: miR-21 reporter, Apoferritin bind)
O=C(CCn1c(=O)c2cccn2c2ccc(F)cc21)NCCc1ccccc1Cl	none
O=C(CCCn1c(=O)c2ccccc2n(CC(=O)Nc2cccc(Cl)c2)c1=O)NCc1ccc2c(c1)OCO2	none
O=C(O)Cc1sc(N/N=C\c2ccncc2)nc1-c1ccccc1	rTrxR1 inhibitor 3.2µM
O=C(O)Cc1sc(Nc2ccccc2)nc1-c1ccccc1	none
CCN(CC)CCCNC(=O)CCCn1ncn2c(cc3occc32)c1=O	none
CCn1c(=O)cc(SCC(=O)NCCc2ccc(OC)cc2OC)c2ccccc21	none
COc1ccc(C2C(C#N)C(C#N)N3CCCN23)cc1 (stereo not drawn)	ClpP mod 32µM
COc1ccc([C@H]2[C@@H](C#N)[C@H](C#N)N3CCCN23)cc1	rTrxR1 inhibitor inconclusive
O=C1Cc2ccccc2C(=O)N1Nc1ccccc1	rTrxR1 inhibitor 50µM (no result: miR-21 reporter, Apoferritin bind)
CN(C)CCNc1oc(COc2ccc(Cl)cc2)nc1C#N	rTrxR1 inhibitor 14µM
CN(C)CCNc1oc(COc2cccc(Cl)c2)nc1C#N	rTrxR1 inhibitor inconclusive, Apoferritin bind inconclusive
CNc1oc(-c2cccs2)nc1C#N	none
COc1ccccc1OCc1nc(C#N)c(NCc2ccc(C)cc2)o1	none
COc1ccc(Nc2oc(-c3cccs3)nc2C#N)cc1	ClpP mod 14µM
COc1ccc(Nc2oc(COc3ccccc3OC)nc2C#N)cc1	miR-21 reporter inconclusive, rTrxR1 inhibitor 45µM
CCc1cccc(C)c1NC(=O)c1ccc2c(c1)CCN2S(=O)(=O)c1ccc(Cl)cc1	none
C[C@@H]1[C@H](c2ccccc2)OCCS(=O)(=O)N1Cc1ccc(Cl)cc1	none (no result: miR-21 reporter, Apoferritin bind)
CCOc1ccccc1-c1noc(CSc2nnc(-c3ccccc3)n2-c2ccc(F)cc2)n1	miR-21 reporter inconclusive
Cc1c(C#N)c(=O)c(-[n+]2ccccc2)c([S-])n1-c1ccc(Cl)cc1	rTrxR1 inhibitor 50µM
Oc1cc2c(cc1C(c1ccc(Cl)c(Cl)c1)N1CCCC1)OCO2 (stereo not drawn)	rTrxR1 inhibitor 3.5µM, Apoferritin bind inconclusive (no result: ClpP mod)
CCOC(=O)c1c(-c2ccc(C)o2)csc1NC(=O)CSc1nnc(C)s1	rTrxR1 inhibitor 8.9µM, Apoferritin bind inconclusive
CCOC(=O)c1c(-c2ccccc2)csc1NC(=O)CSc1nnc(C)s1	none
CCOC(=O)c1c(-c2ccc(C)o2)csc1NC(=O)CSc1nnnn1-c1ccccc1	rTrxR1 inhibitor 2.8µM, Apoferritin bind inconclusive
COc1ccc2[nH]c(C(O)C(O)c3nc4c(OC)c(OC)ccc4[nH]3)nc2c1OC (stereo not drawn)	none (no result: miR-21 reporter, Apoferritin bind)
O=c1c(Br)c(Br)cnn1-c1ccccc1	miR-21 reporter inconclusive, rTrxR1 inhibitor inconclusive (no result: ClpP mod)
Cc1ccc(-n2ncc(Br)c(Br)c2=O)cc1	miR-21 reporter inconclusive, rTrxR1 inhibitor 10µM
Cc1ccc(NC(=O)c2cc3c([nH]c2=O)CC(C)(C)CC3=O)cc1	none (no result: miR-21 reporter, Apoferritin bind)
CCOc1cc2c(cc1OCC)C(c1ccc(F)cc1)NCC2 (stereo not drawn)	none (no result: miR-21 reporter, Apoferritin bind)
CCOc1cc(C2NN=C(c3ccccc3)S2)ccc1OCc1ccc(F)cc1 (stereo not drawn)	ClpP mod 14µM
CC(=O)Nc1ccc(S(=O)(=O)NCCc2csc3nc(-c4ccc(Cl)cc4)nn23)cc1	none
